Assays:
[1] = Biodistribution in rats after iv injection (organs)
serotonin transporters = serotonin transporters (Rattus norvegicus, UniProt P31652); experiment: Regional brain distribution and specific binding ratio in rats; details: iv

Sequences of proteins named here, by UniProt entry; tags and fusion partners are left off.
UniProt P31652, whole entry: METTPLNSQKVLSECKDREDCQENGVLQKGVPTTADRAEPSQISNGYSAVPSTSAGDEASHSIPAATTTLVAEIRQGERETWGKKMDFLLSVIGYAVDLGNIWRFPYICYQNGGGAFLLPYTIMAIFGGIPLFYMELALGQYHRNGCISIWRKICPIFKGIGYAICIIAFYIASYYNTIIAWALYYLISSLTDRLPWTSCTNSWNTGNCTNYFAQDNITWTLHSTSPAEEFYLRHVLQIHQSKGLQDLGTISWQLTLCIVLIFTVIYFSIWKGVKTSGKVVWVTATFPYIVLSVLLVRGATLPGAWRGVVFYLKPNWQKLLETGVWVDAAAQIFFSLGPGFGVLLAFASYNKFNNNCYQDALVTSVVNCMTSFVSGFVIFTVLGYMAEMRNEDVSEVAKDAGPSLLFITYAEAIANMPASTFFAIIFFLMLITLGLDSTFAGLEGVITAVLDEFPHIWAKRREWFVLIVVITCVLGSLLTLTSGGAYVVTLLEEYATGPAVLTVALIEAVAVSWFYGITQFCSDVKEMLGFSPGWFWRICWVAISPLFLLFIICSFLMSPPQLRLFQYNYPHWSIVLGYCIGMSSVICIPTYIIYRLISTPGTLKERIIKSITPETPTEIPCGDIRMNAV

CN(C)Cc1ccccc1Sc1ccc(I)cc1N
brain uptake ([1]; 2 h after i.v. injection): 0.42 % dose/brain
brain uptake ([1]; 4 h after i.v. injection): 0.11 % dose/brain
Regional brain distribution HY (hypothalamus) (serotonin transporters; 120 min): 0.44 % dose/g
Regional brain distribution HY (hypothalamus) (serotonin transporters; 240 min): 0.13 % dose/g

From patent US20060083680A1, “Diphenyl ether derivatives and their use for imaging serotonin transporters” (The Trustees of the University of Pennsylvania, priority 2004, published 2006)
